# Columns and labels:
# [1] = target: GST-Syk Full Protein (human) (Homo sapiens, UniProt P43405); test: Syk kinase inhibition test (HTRF method); conditions: read-out: sykHTRF ave IC50, 100 μM ATP, 30 min room temperature, average
# Description: Syk Kinase Inhibition Test (HTRF Method)
# After the compounds were serially diluted with dimethylsulfoxide (DMSO), 10 μL of those 10-fold diluted with kinase buffer (20 mM HEPES pH 7.0, 10 mM MgCl2, 50 mM NaCl, 1 mM 2-ME, 0.05% BSA) was added to opti-plate HTRF-96 (Packard) (final DMSO concentration: 2%). […] After allowed to stand still at room temperature for 1 hour, inhibitory effect of a compound against Syk kinase enzymatic activity was evaluated by measuring 665/620 fluorescence ratio to excitation light at 337 nm by ARVO (Wallac).
# [2] = system: cultured human mast cells; test: Degranulation inhibition test using cultured human mast cells (IgE cross-linking, β-Hexosaminidase release); conditions: read-out: human degranulation ave. IC50, anti-hIgE stimulation, β-Hexosaminidase index, average
# Description: Degranulation Inhibition Test Using Cultured Human Mast Cells
# (1) Separation of Hematopoietic Stem Cells;
# After 10 to 60 mL of umbilical cord blood collected with heparin was diluted with an equivalent amount of buffer (0.5% BSA, 2 mM EDTA/PBS-), it was superposed on Ficoll-Paque (Amersham Pharmacia Biotech) (Ficoll/Blood (1:2)) and mononuclear leukocyte fraction was collected by centrifuging it at 400 G (1350 rpm) 4° C. for 30 minutes. After centrifugal washing (1500 rpm, 5 min, 4° C.×3) with buffer, the number of cells was counted and 0.1 mL of CD34 Progenitor Cell Isolation Kit (Miltenyi Biotec), Reagent A1 (Fc blocking) was added for 1×10^8 cells. After agitation, 0.1 mL of Reagent A2 (CD34 antibody-hapten) was added (final volume 0.5 mL/1×10^8 cells) and incubated at 9° C. for further 15 minutes after agitation. […]
# 10 μL of a compound 10-fold diluted with IMDM after dissolved in DMSO (DMSO final concentration 0.1%) was added and reacted at 37° C. for 10 minutes. […] After centrifugation, 50 μL/well of the supernatant was collected and stored at −40° C. untill the quantity of degranulation was measured. The measurement of quantity of degranulation was performed using enzymatic activity of β-Hexosaminidase contained in the granulates as an index. […]
smiles,measurement,setting,value
CC(=O)NN1CCN(C(=O)[C@H]2CC[C@H](c3ncc(-c4cccc(Nc5cc(C)ccn5)n4)s3)CC2)CC1,IC50,[1],100 to 1000 nM
same,IC50,[2],100 to 1000 nM

# — US7803801B2, “Aminopyridine compounds having Syk inhibitory activity” (Japan Tobacco, Inc., priority 2005, dated 2010)
